According to patent US10426790B2, “Treatment of allergic eye conditions with cyclodextrins” (Aldeyra Therapeutics, Inc., priority 2016, dated 2019):

Tested on: hydroxypropyl-γ-cyclodextrin/NS2 complexes
Test: Example 4 Study 2: allergen displacement of NS2, HP-γ-CD:NS2 30:1, protein:NS2 2:1
Format: physicochemical
Details: up to 96 hours, with Birch, Ragweed, Timothy allergen proteins
Protocol: Study 1 was conducted using a 19:1 SBE-β-CD/NS2 ratio, at starting concentrations equivalent to the clinical formulation. Protein concentration was at 6 mg/mL. […] Study 3 was conducted at a lower NS2 concentration while using the same allergen protein concentrations, to determine whether the effect was present at the lower concentration. A 19:1 SBE-β-CD/NS2 ratio was still in effect, but the ratio of protein to NS2 was 6:1 due to the lower NS2 concentration. […] Stock solutions of each allergen protein were prepared and filtered to remove any non-protein, insoluble portions originating from the lyophilizate. Each protein solution was prepared at a concentration of about 14 mg/mL in 30 mM Phosphate Buffer, pH 7.0, based on the label claim of protein content in each lyophilizate. Stock solution of NS2 (5.24 mg/mL) and HP-γ-CD (150 mg/mL) was prepared in 30 mM phosphate buffer, pH 7.0. This represents about a 29:1 HP-γ-CD:NS2 ratio in the solution. […] Samples were vortexed to mix thoroughly, then kept at 25° C., protected from light. Samples (˜0.5 mL) were taken at T=0 (control), 3 h, 24 h, and 96 h. Each sample was centrifuged and the supernatant filtered through a PVDF syringe filter. […] Samples at T=0 were used as controls, then the recovery percentages were calculated based on T=0 control.

Substance: Hydroxypropyl-γ-cyclodextrin [HP-γ-CD]
- effect on NS2 solubility, in words: did not show any significant drops in NS2 solubility
